The numbers were not newly measured in patent US20170007633A1, “TREATMENT OF NEURODEGENERATIVE AND NEURODEVELOPMENTAL DISEASES BY INHIBITION OF THE a2-Na/K ATPase/a-ADDUCIN COMPLEX” (PRESIDENT AND FELLOWS OF HARVARD COLLEGE, priority 2014, published 2017), which cites them from elsewhere.

Molecules are shown by their SMILES.

For the data set, the system named is ALS. The settings on record: ALS patients; cited from earlier work.

In the case of `Nc1nc2ccc(OC(F)(F)F)cc2s1` [Riluzole], the “increase of patient survival on average” value is on record as 2-3 months.
